Data taken from patent US8653041B2, “Antibacterial aminoglycoside analogs” (Achaogen, Inc., priority 2010, dated 2014).

Test: 14-day rat toxicology (nephrotoxicity), once-daily subcutaneous injection
Details: 14 days, Sprague-Dawley rat
Description: The study design utilized once-daily subcutaneous injection administration to the rat for 14 days and assessment of reversibility of any changes following a 28-day recovery period.
The dose volume administered to each animal was 1 mL/kg.

Substance: gentamicin
- change in kidney function readouts serum creatinine and blood urea nitrogen (BUN) (10 mg/kg/day (low dose) subcutaneous): No statistically significant change
- change in kidney function readouts serum creatinine and blood urea nitrogen (BUN) (mid and high dose levels (30 mg/kg/day and 100 mg/kg/day) subcutaneous): statistically significant increase
